# Values quoted from earlier work as cited in US12377176B2, “Cancer diagnostic imaging agents” (Technische Universität München, priority 2019, dated 2025).
# Protein sequences, listed by entry. Tags and fused reporters are not part of them. Residues count along the entry.
# UniProt P02768, 25-609: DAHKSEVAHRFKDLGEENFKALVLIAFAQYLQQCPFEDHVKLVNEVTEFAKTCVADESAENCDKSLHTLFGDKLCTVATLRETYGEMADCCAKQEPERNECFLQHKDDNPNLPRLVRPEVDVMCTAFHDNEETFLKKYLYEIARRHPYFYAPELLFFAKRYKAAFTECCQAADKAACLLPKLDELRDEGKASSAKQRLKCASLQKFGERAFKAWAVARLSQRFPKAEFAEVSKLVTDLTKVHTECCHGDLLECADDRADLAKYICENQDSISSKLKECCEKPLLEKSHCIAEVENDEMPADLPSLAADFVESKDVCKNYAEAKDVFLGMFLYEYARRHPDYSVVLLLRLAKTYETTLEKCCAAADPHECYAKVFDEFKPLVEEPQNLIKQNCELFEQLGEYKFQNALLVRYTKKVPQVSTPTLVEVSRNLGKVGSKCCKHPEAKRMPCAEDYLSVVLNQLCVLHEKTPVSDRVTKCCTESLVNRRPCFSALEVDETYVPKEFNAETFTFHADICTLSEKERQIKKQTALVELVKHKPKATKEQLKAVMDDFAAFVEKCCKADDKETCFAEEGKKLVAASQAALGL
# Target: T1, HSA (Homo sapiens, UniProt P02768)
# T1 construct: purchased H13H-2433
# Details: literature value of human serum albumin binding (Yamazaki 2004); calibration reference; cited from earlier work
compound,measurement,value
NC(=O)N1c2ccccc2C=Cc2ccccc21 [Carbamazepine],Lit. HSA %,75.00%
